This test addresses Apoptosis regulator Bcl-2 (Homo sapiens, UniProt P10415). Briefly: FP values were measured as described above.

Chains of the proteins cited; added tags and fusions are not shown.
UniProt P10415, whole entry: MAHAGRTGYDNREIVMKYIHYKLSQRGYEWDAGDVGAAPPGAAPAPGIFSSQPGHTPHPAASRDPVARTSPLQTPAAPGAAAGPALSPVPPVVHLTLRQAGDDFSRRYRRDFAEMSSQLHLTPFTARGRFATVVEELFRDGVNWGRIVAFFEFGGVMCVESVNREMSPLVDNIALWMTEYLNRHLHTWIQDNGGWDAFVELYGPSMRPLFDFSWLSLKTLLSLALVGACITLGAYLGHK

Consider `O=C(NS(=O)(=O)c1ccc(NCC2COCCO2)c([N+](=O)[O-])c1)c1ccc(N2CCN(CC3=C(c4ccc(Cl)cc4)CC4(CC3)COC4)CC2)cc1Oc1cnc2[nH]ccc2c1` (configuration not stated), for which the IC50 (as a rule, the concentration that gives 50% inhibition) is 2.4 nM. On to `O=C(NS(=O)(=O)c1cc([N+](=O)[O-])c2cnn(C3CCOCC3)c2c1)c1ccc(N2CCN(CC3=C(c4ccc(Cl)cc4)CC4(CCC4)CC3)CC2)cc1Oc1cnc2[nH]ccc2c1`, for which 2.4 nM corresponded to half-maximal inhibition (IC50).
